Literature values as cited in US20250354049A1, “CORROSION-INHIBITING AGENTS FOR REDUCING DISSOLVED OXYGEN CONCENTRATIONS WITHIN UPSTREAM OILFIELD SYSTEMS” (Finoric LLC, priority 2024, published 2025).

Settings: solvents named; cited from earlier work

In the case of `O=S([O-])[O-].[Na+].[Na+]` [Sodium Sulfite], the “Solubility in Other Solvents” value is given as “-Ethanol”.
